This note sets out measurements from patent publication US9138421B2, “Platinum compounds for treating cell proliferative diseases, preparation method and use thereof” (priority 2011, dated 2015).

For this data set the following is noted: in water.

In the case of “2-(2-diethylamine ethyl)-malonic.cis-1,4-(trans-2,3-cyclobutyl)-butanediamine platinum (II) phosphate [compound 26]”, the solubility (commonly the concentration that dissolves in the medium under given conditions) was 176 mg/mL.

“[2-(2-diethylamine ethyl)-malonato].[cis-1,2-(1,2-dihydroxymethyl)-ethyldiamine]platinum (II) phosphate [compound 23]” returned a solubility of 206 mg/mL.

Substance “[2-(2-diethylamine ethyl)-malonato].[cis-1,3-(2,2-(4-oxacyclohexyl))-propyldiamine]platinum (II) phosphate [compound 28]” showed a solubility of 178 mg/mL.

In turn, “[2-(2-dimethylamine ethyl)-malonato].[cis-1,2-ethylenediamine] platinum (II) tosilate [compound 20]” had a solubility of 269 mg/mL.

For “[2-(2-dimethylamine ethyl)-malonato].[cis-trans-1,2-diaminomethylcyclobutane]platinum (II) phosphate [compound 25]”, the solubility was found to be 185 mg/mL.

The substance “[2-(3-diethylamine propyl)-malonato].[cis-(1,2-trans-diaminocyclopentane)]platinum (II) phosphate [compound 17]” gave a solubility of 178 mg/mL.

Consider “[2-(3-dimethylamine propyl)-malonato].[cis-(1,2-trans-cyclohexamethylene diamine)]platinum (II) phosphate [compound 11]”, for which the solubility was 200 mg/mL.
